Usually pIC50 stands for the negative decadic logarithm of the IC50, by convention in mol/L.

pIC50: −log10 of the molar value.

This assay concerns the target mammalian target of rapamycin (mTOR) (Homo sapiens (Human), UniProt P42345). The settings on record: read-out: mTOR IC50.
With `Cc1nc(N)nc(-c2cc(C(C)N3CCN(C(=O)N(C)C)CC3)cnc2Nc2ccc3scnc3c2)n1` (stereo not drawn) [Example 289, 4-(1-(5-(4-Amino-6-Methyl-1,3,5-Triazin-2-yl)-6-(Benzo[D]Thiazol-5-Ylamino)Pyridin-3-yl)Ethyl)-N,N-Dimethylpiperazine-1-Carboxamide], the pIC50 is 6.49. For the compound `COc1ncc(Nc2ncc(C(C)CO)cc2-c2nc(C)nc(N)n2)cc1F` (single isomer, unassigned) [312 Second eluting, 2-(5-(4-Amino-6-methyl-1,3,5-triazin-2-yl)-6-(5-fluoro-6-methoxypyridin-3-ylamino)pyridin-3-yl)propan-1-ol], the pIC50 was < 5.00.

Regarding `Cc1cnc(Nc2cccc3[nH]ccc23)c(-c2nc(C)nc(N)n2)c1` [Example 46, N-(3-(4-Amino-6-Methyl-1,3,5-Triazin-2-yl)-5-Methylpyridin-2-yl)-1H-Indol-4-Amine], the pIC50 is 5.16. For the compound `COc1ccc(Nc2cnc(Nc3ccc(OC)nc3)c(-c3nc(C)nc4[nH]cnc34)c2)cc1` [Example 90, N5-(4-methoxyphenyl)-N2-(6-methoxypyridin-3-yl)-3-(2-methyl-9H-purin-6-yl)pyridine-2,5-diamine], the pIC50 was 6.13. To `Cc1ccc2cc(Nc3ncccc3-c3nc(C)nc(N)n3)ccc2n1` [Example 171, N-(3-(4-Amino-6-Methyl-1,3,5-Triazin-2-yl)Pyridin-2-yl)-2-Methylquinolin-6-Amine] belongs < 5.00; to `COc1ccc(Nc2ncccc2-c2nc(C)nc(N)n2)cc1F` [Example 166, 4-(2-(3-Fluoro-4-Methoxyphenylamino)Pyridin-3-yl)-6-Methyl-1,3,5-Triazin-2-Amine], < 5.00. As to `Cc1nc(N)nc(-c2cc(C(C)N3CCOCC3)cnc2Nc2ccc3scnc3c2)n1` (stereo not drawn) [Example 288, N-(3-(4-Amino-6-Methyl-1,3,5-Triazin-2-yl)-5-(1-Morpholinoethyl)Pyridin-2-yl)Benzo[D]Thiazol-5-Amine], the pIC50 is 6.62.

In the case of `COc1ccc(Nc2ncc([C@@H](C)N3CCN(S(C)(=O)=O)CC3)cc2-c2nc(C)nc(N)n2)cn1` [Example 146, (R)-4-(2-(6-Methoxypyridin-3-Ylamino)-5-(1-(4-(Methylsulfonyl)Piperazin-1-yl)Ethyl)Pyridin-3-yl)-6-Methyl-1,3,5-Triazin-2-Amine], the pIC50 was 5.49. For `COCCNc1nc(C)nc(-c2cc(Cl)cnc2Nc2cnc(OC)c(F)c2)n1` [Example 189, 4-(5-Chloro-2-(5-Fluoro-6-Methoxypyridin-3-Ylamino)Pyridin-3-yl)-N-(2-Methoxyethyl)-6-Methyl-1,3,5-Triazin-2-Amine], the pIC50 is < 5.00. In the case of `CCOc1ccc(Nc2ncccc2-c2nc(C)nc(N)n2)cn1` [Example 49, 4-(2-(6-ethoxypyridin-3-ylamino)pyridin-3-yl)-6-methyl-1,3,5-triazin-2-amine], the pIC50 is 4.85. Turning to `Cc1nc(N)cc(-c2cccnc2Nc2cnc(Cl)c(NS(C)(=O)=O)c2)n1` [Example 304, N-(5-((3-(6-amino-2-methyl-4-pyrimidinyl)-2-pyridinyl)amino)-2-chloro-3-pyridinyl)methanesulfonamide], the pIC50 is 6.35. To `COc1ccc(Nc2ncc(C(N3CCN(S(C)(=O)=O)CC3)C(F)(F)F)cc2-c2nc(C)nc(N)n2)cn1` (stereo not drawn) [Example 321, 4-(2-(6-Methoxypyridin-3-Ylamino)-5-(2,2,2-Trifluoro-1-(4-(Methylsulfonyl)Piperazin-1-yl)Ethyl)Pyridin-3-yl)-6-Methyl-1,3,5-Triazin-2-Amine] belongs 5.51; to `COc1ncc(Nc2ncc(C(C)c3ccc(S(C)(=O)=O)cc3)cc2-c2nc(C)nc(N)n2)cc1F` (stereo not drawn) [Example 150, 4-(2-(5-Fluoro-6-Methoxypyridin-3-Ylamino)-5-(1-(4-(Methylsulfonyl)Phenyl)Ethyl)Pyridin-3-yl)-6-Methyl-1,3,5-Triazin-2-Amine], < 5.00; to `COc1ccc(Nc2ncc(C(N)c3ccc(S(=O)(=O)N(C)C)cc3)cc2-c2nc(C)nc(N)n2)cn1` (stereo not drawn) [Example 237, 4-(Amino(5-(4-Amino-6-Methyl-1,3,5-Triazin-2-yl)-6-(6-Methoxypyridin-3-Ylamino)Pyridin-3-yl)Methyl)-N,N-Dimethylbenzenesulfonamide], < 5.00.

As for `Cc1nc(N)cc(-c2nccnc2Nc2cnc(Cl)c(NS(C)(=O)=O)c2)n1` [Example 307, N-(5-((3-(6-amino-2-methyl-4-pyrimidinyl)-2-pyrazinyl)amino)-2-chloro-3-pyridinyl)methanesulfonamide], the pIC50 was 5.41.

As to `Cc1nc(N)nc(-c2cc(CN3CCN(S(C)(=O)=O)CC3)cnc2Nc2cnc(O)c(F)c2)n1` [Example 161, 5-(3-(4-Amino-6-Methyl-1,3,5-Triazin-2-yl)-5-((4-(Methylsulfonyl)Piperazin-1-yl)Methyl)Pyridin-2-Ylamino)-3-Fluoropyridin-2-ol], the pIC50 was < 5.00. With `COc1ccc(Nc2ncc(OC(F)F)cc2-c2nc(C)nc(N)n2)cn1` [Example 262, 4-(5-(Difluoromethoxy)-2-(6-Methoxypyridin-3-Ylamino)Pyridin-3-yl)-6-Methyl-1,3,5-Triazin-2-Amine], the negative-log IC50 (pIC50) is < 5.00.

For the compound `COc1ncc(Nc2nc(COCC(F)(F)F)ccc2-c2nc(C)nc(N)n2)cc1F` [Example 199, 4-(2-(5-Fluoro-6-Methoxypyridin-3-Ylamino)-6-((2,2,2-Trifluoroethoxy)Methyl)Pyridin-3-yl)-6-Methyl-1,3,5-Triazin-2-Amine], the pIC50 is < 5.00. As for `Cc1nc(N)nc(-c2cccnc2Nc2ccc3oc(C)nc3c2)n1` [Example 165, N-(3-(4-Amino-6-Methyl-1,3,5-Triazin-2-yl)Pyridin-2-yl)-2-Methylbenzo[D]Oxazol-5-Amine], the pIC50 is < 5.00. For `COc1ncc(Nc2ncc([C@@H](C)N3CCN(S(C)(=O)=O)C[C@@H]3C)cc2-c2nc(C)nc(N)n2)cn1` [Example 362, 4-(2-(2-Methoxypyrimidin-5-Ylamino)-5-((R)-1-((S)-2-Methyl-4-(Methylsulfonyl)Piperazin-1-yl)Ethyl)Pyridin-3-yl)-6-Methyl-1,3,5-Triazin-2-Amine], the pIC50 is 5.92. As for `Cc1cnc(Nc2cccnc2)c(-c2nc(C)nc(N)n2)c1` [Example 32, Methyl-6-(5-Methyl-2-(Pyridin-3-Ylamino)Pyridin-3-yl)-1,3,5-Triazin-2-Amine], the pIC50 was < 4.30.

For `COc1ccc(Nc2ncc(C(C)N3CCN(S(C)(=O)=O)CC3)nc2-c2cc(N)nc(C)n2)cn1` (stereo not drawn) [Example 286, 6-(3-(6-Methoxypyridin-3-Ylamino)-6-(1-(4-(Methylsulfonyl)Piperazin-1-yl)Ethyl)Pyrazin-2-yl)-2-Methylpyrimidin-4-Amine], the pIC50 is 5.71. For `Cc1nc(-c2cc(Cc3ccc(S(C)(=O)=O)cc3)cnc2Nc2cccc3[nH]ncc23)c2nc[nH]c2n1` [Example 104, N-(3-(2-methyl-9H-purin-6-yl)-5-(4-(methylsulfonyl)benzyl)pyridin-2-yl)-1H-indazol-4-amine], the pIC50 was < 5.00. For `COc1ccc(Nc2ncc(CN3CCC(S(C)(=O)=O)CC3)cc2-c2nc(C)nc(N)n2)cn1` [Example 224, 4-(2-(6-Methoxypyridin-3-Ylamino)-5-((4-(Methylsulfonyl)Piperidin-1-yl)Methyl)Pyridin-3-yl)-6-Methyl-1,3,5-Triazin-2-Amine], the pIC50 is < 5.00.

(Values after US8772480B2, “Inhibitors of PI3 kinase and/or mTOR” (priority 2009, dated 2014).)
